Test system: Porcine Liver
Conditions: pig

SMILES: O=C1[O][Pt]2([NH][C@@H]3CCCC[C@H]3[NH]2)[O]C1=O [oxaliplatin]
- tapering of oxaliplatin in the blood back to baseline (1.5 mL PHIL LV loaded with 30 mg oxaliplatin, blood collected to 120 minutes): beyond the time scale of the experiment
- oxaliplatin in the blood, rapid rise to (in five minutes, 1.5 mL PHIL LV loaded with 30 mg oxaliplatin into hepatic artery branch): about 1,300 ppb

From US20210290816A1, “LIQUID EMBOLICS” (MicroVention, Inc., priority 2020, published 2021)
